# Laboratory results taken from publication PMC5762261 (Archives of biochemistry and biophysics, 2017).
# Test system: NC(=O)c1cccnc1
# Assay: 14C-nicotinamide base exchange assay
# Assay type: biochemical, human
# Settings: other: NAM varied, 1 mM p53K382Ac, 800 μM NAD+; pH 7.5; 37.0 °C
substance,measurement,value
SIRT6 (Homo sapiens),Km,1820 ± 500 µM
